This passage reports Kd results from patent US11357851B2, “Uses of myostatin antagonists, combinations containing them and uses thereof” (Novartis AG, priority 2015, dated 2022).

By UniProt entry, the sequences of proteins in these tests, tags left out. Residues count along the entry.
UniProt Q13705, 19-512: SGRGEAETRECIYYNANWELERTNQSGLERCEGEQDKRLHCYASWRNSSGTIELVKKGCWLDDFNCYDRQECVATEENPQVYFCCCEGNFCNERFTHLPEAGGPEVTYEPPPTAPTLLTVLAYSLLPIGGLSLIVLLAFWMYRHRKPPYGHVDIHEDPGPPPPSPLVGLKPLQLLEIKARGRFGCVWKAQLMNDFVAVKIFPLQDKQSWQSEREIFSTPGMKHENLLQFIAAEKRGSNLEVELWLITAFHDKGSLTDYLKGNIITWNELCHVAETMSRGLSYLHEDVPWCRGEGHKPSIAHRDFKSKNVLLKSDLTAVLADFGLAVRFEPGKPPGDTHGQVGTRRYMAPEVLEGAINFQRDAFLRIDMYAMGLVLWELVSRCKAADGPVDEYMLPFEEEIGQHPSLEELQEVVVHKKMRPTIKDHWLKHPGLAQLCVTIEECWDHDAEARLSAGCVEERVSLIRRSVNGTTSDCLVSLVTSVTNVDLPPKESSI
UniProt P27037, 20-513: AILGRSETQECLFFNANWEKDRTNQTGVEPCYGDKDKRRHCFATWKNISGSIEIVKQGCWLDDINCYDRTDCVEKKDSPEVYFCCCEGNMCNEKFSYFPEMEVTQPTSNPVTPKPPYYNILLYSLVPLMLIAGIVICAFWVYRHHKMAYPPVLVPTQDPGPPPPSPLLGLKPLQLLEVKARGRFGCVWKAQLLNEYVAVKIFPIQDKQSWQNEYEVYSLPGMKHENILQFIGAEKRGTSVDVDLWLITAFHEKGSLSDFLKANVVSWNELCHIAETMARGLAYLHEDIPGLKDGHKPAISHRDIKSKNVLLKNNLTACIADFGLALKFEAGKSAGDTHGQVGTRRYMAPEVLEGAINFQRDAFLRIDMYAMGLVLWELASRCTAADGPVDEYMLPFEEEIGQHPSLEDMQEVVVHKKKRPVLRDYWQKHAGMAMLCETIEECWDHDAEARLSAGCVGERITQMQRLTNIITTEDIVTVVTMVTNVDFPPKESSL

By Kd is commonly meant the equilibrium constant for the complex coming apart. A higher Kd goes with lower affinity.

One assay addresses human ActRIIB (Homo sapiens, UniProt Q13705). Nature of the assay: Binding affinity of bimagrumab to human ActRIIB.
The target in another assay is human ActRIIA (Homo sapiens, UniProt P27037). Nature of the assay: Binding affinity of bimagrumab to human ActRIIA.

Consider “Bimagrumab: fully human monoclonal antibody (modified IgG1, 234-235-Ala-Ala, λ2) binding activin receptor type II (ActRII)”, for which the Kd was found to be 0.0017 ± 0.0003 nM with human ActRIIB and 0.434 ± 0.025 nM with human ActRIIA.
